Test results as given in BindingDB's records for doi:10.1021/jm000013n (The University of Queensland, 2000).

Assay: Inhibition of virion associated RT activity relative to untreated, infected control in MT2 cells infected with HIV-1 237288 strain

`CC(C)CN(C[C@@H](O)[C@H](Cc1ccccc1)NC(=O)O[C@H]1CCOC1)S(=O)(=O)c1ccc(N)cc1` [VX-478] gave an IC50 of 30 nM.
